Here are results for three compounds from patent US20250129135A1, “Multi-Agonist and Use Thereof” (priority 2021, published 2025).

Sequences of proteins named here, by UniProt entry; tags and fusion partners are left off. Residues count along the entry.
UniProt P43220, 24-463: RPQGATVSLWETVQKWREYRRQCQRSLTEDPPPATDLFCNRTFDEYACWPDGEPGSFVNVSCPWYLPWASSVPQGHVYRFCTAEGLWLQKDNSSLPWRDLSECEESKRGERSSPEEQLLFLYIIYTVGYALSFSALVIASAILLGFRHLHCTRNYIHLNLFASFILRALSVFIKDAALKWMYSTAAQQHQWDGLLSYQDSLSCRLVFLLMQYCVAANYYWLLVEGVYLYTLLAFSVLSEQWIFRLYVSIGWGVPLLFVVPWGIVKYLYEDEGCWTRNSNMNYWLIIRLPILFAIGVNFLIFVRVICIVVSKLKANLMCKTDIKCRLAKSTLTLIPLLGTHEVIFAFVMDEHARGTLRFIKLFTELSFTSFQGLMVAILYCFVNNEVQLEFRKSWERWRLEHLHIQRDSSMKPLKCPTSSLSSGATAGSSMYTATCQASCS
UniProt P47871, 26-477: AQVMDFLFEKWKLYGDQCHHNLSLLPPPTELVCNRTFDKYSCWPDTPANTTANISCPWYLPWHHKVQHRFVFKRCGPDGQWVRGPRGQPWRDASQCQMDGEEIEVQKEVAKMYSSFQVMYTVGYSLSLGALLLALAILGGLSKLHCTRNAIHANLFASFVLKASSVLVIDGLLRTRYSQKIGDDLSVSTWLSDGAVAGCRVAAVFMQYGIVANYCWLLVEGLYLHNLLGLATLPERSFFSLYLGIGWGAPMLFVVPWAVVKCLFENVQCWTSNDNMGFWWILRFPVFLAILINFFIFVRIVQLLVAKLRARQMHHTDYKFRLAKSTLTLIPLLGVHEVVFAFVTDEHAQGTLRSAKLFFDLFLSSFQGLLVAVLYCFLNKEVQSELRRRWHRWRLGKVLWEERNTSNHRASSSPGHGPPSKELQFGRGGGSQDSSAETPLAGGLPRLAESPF

Experiment [1] relates to 3T3-L1 adipocytes. As to conditions: for EC50: read-out: EC50 on mouse 3T3-L1 adipocyte, cAMP, at least 3 independent tests; for Rel. A (Relative Activity) on 3T3-L1 adipocyte: relative to GIP. A digest of the protocol:
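Compound-induced cAMP was measured in mature 3T3-L1 adipocytes after 60 min room-temperature exposure to a 10-concentration, 3-fold dilution series, followed by 60 min with kit detection reagent and curve fitting. Differentiation used IBMX/dexamethasone/insulin (5 days), insulin with 10 uM rosiglitazone (3 days), then 2–3 days in 10% FBS.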

Experiment [2] concerns the target Human GLP-1R (Homo sapiens, UniProt P43220). Description: cAMP (HTRF) activity in HEK-293 cells stably overexpressing human GLP-1 receptor. Further details: expressed in transfected cells; host or cells: HEK-293. As to conditions: for Human GLP-1R Rel. A (Relative Activity): EC50 of human GLP-1 (7-37) / EC50 of compound. The format is cell-based. A digest of the protocol:
(§1)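 Agonism was assessed from intracellular cAMP by HTRF. Cells resuspended in HBSS were treated with compound for 60 minutes at room temperature, then with detection reagent for a further 60 minutes. EC50 (nM) values came from concentration–response curves.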
For orientation: TR-FRET usually uses a lanthanide donor and a delayed reading to cut background.

Experiment [3] concerns the target T1, Human GCG R (Homo sapiens, UniProt P47871).
T1 construct: expressed in transfected cells; host or cells: HEK-293
Description: cAMP (HTRF) activity in HEK-293 cells stably overexpressing human GCG receptor. In kind it is cell-based. As to conditions: for Human GCG R Rel. A (Relative Activity): EC50 of human GCG / EC50 of compound. In short, it runs like this:
as §1

Experiment [4] deals with T2, Human GIP R (Homo sapiens, UniProt P48546).
T2 construct: expressed in transfected cells; host or cells: CHO
T2 sequence (P48546 22-466): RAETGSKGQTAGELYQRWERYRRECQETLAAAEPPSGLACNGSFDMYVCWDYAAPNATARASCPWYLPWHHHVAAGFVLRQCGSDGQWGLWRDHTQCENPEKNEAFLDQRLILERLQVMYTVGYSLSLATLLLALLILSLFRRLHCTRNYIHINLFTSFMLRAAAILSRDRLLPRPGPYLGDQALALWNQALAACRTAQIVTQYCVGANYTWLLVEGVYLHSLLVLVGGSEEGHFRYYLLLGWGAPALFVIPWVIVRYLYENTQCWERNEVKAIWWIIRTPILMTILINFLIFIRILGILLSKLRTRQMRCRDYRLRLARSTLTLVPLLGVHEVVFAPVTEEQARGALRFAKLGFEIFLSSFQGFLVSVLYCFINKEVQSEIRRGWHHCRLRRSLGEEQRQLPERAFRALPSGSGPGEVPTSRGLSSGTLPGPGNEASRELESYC
Description: cAMP (HTRF) activity in CHO cells stably overexpressing GIP receptor. The format is cell-based. The settings on record: for Human GIP R Rel. A (Relative Activity): EC50 of human GIP / EC50 of compound. A digest of the protocol: as §1

Experiment [5] has as its system human primary liver cells. The format is cell-based. The settings on record: for EC50: cAMP, at least 3 independent tests, read-out: EC50 on human primary liver cells; for Rel. A (Relative Activity) on human primary liver cells: relative to GCG. A digest of the protocol:
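cAMP readout after 60 min with detection reagent, following 60 min room-temperature compound incubation. Cells were primary human liver cells thawed at 37° C and resuspended in HBSS.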

Experiment [6] concerns RIN-m5F cells. The format is cell-based, rat. As to conditions: for EC50: cAMP, at least 3 independent tests, read-out: EC50 on RIN-m5F rat pancreatic islet tumor cells; for Rel. A (Relative Activity) on RIN-m5F: relative to GLP-1(7-37). A digest of the protocol: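 After 60 min room-temperature exposure of HBSS-suspended RIN-m5F cells to compound and another 60 min with detection reagent, cellular cAMP level was determined.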

The test system of experiment [7] is C57 BL/6J DIO mice. Description: In vivo pharmacodynamics in high-fat diet induced obesity (DIO) mice. As to conditions: 3 nmol/kg, Day 15, Mean±SEM. Also on record: species or system mouse. From the text:
High-fat diet induced obesity (DIO) mice have characteristics such as obesity, elevated blood sugar, insulin resistance, and lipid abnormalities, all of which are very significant metabolic syndromes similar to a human body. The effects of the compounds of the present application on body weight, food intake, blood sugar, and lipids in C57 BL/6J DIO mice were studied.
Obesity was induced in mice by feeding with a high-fat diet (60 kcal % of calories from fat). […] After grouping, one animal was raised in each cage for one week, during which each of the animals was injected subcutaneously (S.C.) with a solvent (1×PBS, 5 ml/kg) to pre-adapt the experimental operation process.
After the preparation of animals, vehicle control or compounds were administered to groups of animals by subcutaneous injection, in which the compounds were dissolved in 1×PBS, the dosage was 5 ml/kg, and the administration operation was started at 9:00 am and conducted once every three days (Q3D) for 15 days. Throughout the entire experimental study, animal weight and food intake were measured daily before administration, and compared with initial weight and food intake of the same animal before administration to calculate a percentage change in animal weight (%) and cumulative food intake, so as to evaluate the impact of compounds on changes in body weight and food intake.
At the end point of the experiment (Day 15), the body weight of the mice was measured, and then fasting blood glucose was measured by taking blood from the tail tip of broken tail without anesthesia. After the blood collection, the animals were anesthetized with CO2 and euthanized. Then, blood was taken from the heart and plasma was separated by centrifugation. The plasma was used to measure total cholesterol (TC), low-density lipoprotein cholesterol (LDL-C), triglycerides (TG), and blood insulin content. The liver was separated for homogenization, and then centrifuged to obtain the supernatant for determining triglyceride content in the liver.
All results were expressed in Mean±SEM, and the results were analyzed by one-way ANOVA using GraphPad Prism 5 software, followed by Dunnett's post hoc test compared to the Vehicle control group. The difference at the p<0.05 level was considered statistically significant.

What is called EC50 is the concentration giving half of the maximal effect.

`CC[C@H](C)[C@H](NC(=O)[C@H](Cc1ccccc1)NC(=O)[C@H](C)NC(=O)C(C)(C)NC(=O)[C@H](CCC(N)=O)NC(=O)[C@H](C)NC(=O)[C@H](CCCCNC(=O)COCCOCCNC(=O)COCCOCCNC(=O)CC[C@H](NC(=O)CCCCCCCCCCCCCCCCCCC(=O)O)C(=O)O)NC(=O)[C@H](CCCCN)NC(=O)[C@H](CC(=O)O)NC(=O)[C@H](CC(C)C)NC(=O)[C@](C)(CC(C)C)NC(=O)[C@@H](NC(=O)[C@H](CO)NC(=O)[C@H](Cc1ccc(O)cc1)NC(=O)[C@H](CC(=O)O)NC(=O)[C@H](CO)NC(=O)[C@@H](NC(=O)[C@](C)(Cc1ccccc1F)NC(=O)[C@@H](NC(=O)CNC(=O)[C@H](CCC(N)=O)NC(=O)C(C)(C)NC(=O)[C@@H](N)Cc1ccc(O)cc1)[C@@H](C)O)[C@@H](C)O)[C@@H](C)CC)C(=O)N[C@@H](CCC(=O)O)C(=O)N[C@@H](Cc1ccccc1)C(=O)N[C@@H](CC(C)C)C(=O)N[C@@H](CC(C)C)C(=O)N[C@@H](CCC(=O)O)C(=O)N[C@H](C(=O)NCC(=O)N1CCC[C@H]1C(=O)N[C@@H](CO)C(=O)N[C@@H](CO)C(=O)NCC(=O)N[C@@H](C)C(=O)N1CCC[C@H]1C(=O)N1CCC[C@H]1C(=O)N1CCC[C@H]1C(=O)N[C@@H](CO)C(N)=O)[C@@H](C)O` [Compound 19]: in experiment [1], the EC50 worked out at 3.01 nM and the “Rel. A (Relative Activity) on 3T3-L1 adipocyte” value came out at 126.31%. Besides, in experiment [2], the half-maximal effective concentration (EC50) is 9 pM and the “Human GLP-1R Rel. A (Relative Activity)” value came to 488.89%. In addition, in experiment [3], the concentration giving a half-maximal response (EC50) was 0.029 nM and the “Human GCG R Rel. A (Relative Activity)” value worked out at 196.55%. Besides, in experiment [4], the EC50 worked out at 8 pM and the “Human GIP R Rel. A (Relative Activity)” value was 2262.50%. Also, in experiment [5], the EC50 was found to be 0.971 nM and the “Rel. A (Relative Activity) on human primary liver cells” value was found to be 400.72%. Also, in experiment [6], the concentration giving a half-maximal response (EC50) is 0.149 nM and the “Rel. A (Relative Activity) on RIN-m5F” value worked out at 692.62%. Also, in experiment [7] (Table 8-2), the “Blood sugar (fasting blood glucose)” value turned out to be 142.0 ± 2.92 mg/dL and the “Insulin (blood)” value is 26.1 ± 4.77 mIU/L. Besides, the “Liver TG” value in experiment [7] (Table 9-2) stood at 38.0 ± 3.37 mg.
As to `CC[C@H](C)[C@H](NC(=O)[C@H](Cc1ccccc1)NC(=O)[C@H](C)NC(=O)C(C)(C)NC(=O)[C@H](CCC(N)=O)NC(=O)[C@H](C)NC(=O)[C@H](CCCCNC(=O)COCCOCCNC(=O)COCCOCCNC(=O)CC[C@H](NC(=O)CCCCCCCCCCCCCCCCCCC(=O)O)C(=O)O)NC(=O)[C@H](CCCCN)NC(=O)[C@H](CC(=O)O)NC(=O)[C@H](CC(C)C)NC(=O)[C@](C)(CC(C)C)NC(=O)[C@@H](NC(=O)[C@H](CO)NC(=O)[C@H](Cc1ccc(O)cc1)NC(=O)[C@H](CC(=O)O)NC(=O)[C@H](CO)NC(=O)[C@@H](NC(=O)[C@](C)(Cc1ccccc1F)NC(=O)[C@@H](NC(=O)CNC(=O)[C@H](CCC(N)=O)NC(=O)C(C)(C)NC(=O)[C@@H](N)Cc1ccc(O)cc1)[C@@H](C)O)[C@@H](C)O)[C@@H](C)CC)C(=O)N[C@@H](CCC(=O)O)C(=O)N[C@@H](Cc1ccccc1)C(=O)N[C@@H](CC(C)C)C(=O)N[C@@H](CC(C)C)C(=O)N[C@@H](CCC(=O)O)C(=O)NC(C)(C)C(=O)N[C@@H](Cc1c[nH]cn1)C(=O)N1CCC[C@H]1C(=O)N[C@@H](CO)C(=O)N[C@@H](CO)C(=O)NCC(=O)N[C@@H](C)C(=O)N1CCC[C@H]1C(=O)N1CCC[C@H]1C(=O)N1CCC[C@H]1C(=O)N[C@@H](CO)C(N)=O` [Compound 20], in experiment [1], the concentration for a half-maximal effect (EC50) turned out to be 0.447 nM and the “Rel. A (Relative Activity) on 3T3-L1 adipocyte” value was 850.56%. In experiment [2], the midpoint of the response, the EC50, lay at 10 pM and the “Human GLP-1R Rel. A (Relative Activity)” value turned out to be 440.00%. Also, in experiment [3], the “Human GCG R Rel. A (Relative Activity)” value was determined as 247.83%. Besides, the “Human GIP R Rel. A (Relative Activity)” value in experiment [4] amounted to 3016.67%. In experiment [5], the half-maximal effective concentration (EC50) is 0.846 nM and the “Rel. A (Relative Activity) on human primary liver cells” value is recorded as 459.93%. In addition, in experiment [6], the EC50 was determined as 0.267 nM and the “Rel. A (Relative Activity) on RIN-m5F” value was 386.52%. In addition, the “Liver TG” value in experiment [7] (Table 9-1) is 26.7 ± 2.81 mg.
For `CC[C@H](C)[C@H](NC(=O)[C@H](Cc1ccccc1)NC(=O)[C@H](C)NC(=O)C(C)(C)NC(=O)[C@H](CCC(N)=O)NC(=O)[C@H](C)NC(=O)[C@H](CCCCNC(=O)COCCOCCNC(=O)COCCOCCNC(=O)CC[C@H](NC(=O)CCCCCCCCCCCCCCCCCCC(=O)O)C(=O)O)NC(=O)[C@H](CCCCN)NC(=O)[C@H](CC(=O)O)NC(=O)[C@H](CC(C)C)NC(=O)[C@H](Cc1ccccc1)NC(=O)[C@@H](NC(=O)[C@H](CO)NC(=O)[C@H](Cc1ccc(O)cc1)NC(=O)[C@H](CC(=O)O)NC(=O)[C@H](CO)NC(=O)[C@@H](NC(=O)[C@](C)(Cc1ccccc1F)NC(=O)[C@@H](NC(=O)CNC(=O)[C@H](CCC(N)=O)NC(=O)C(C)(C)NC(=O)[C@@H](N)Cc1ccc(O)cc1)[C@@H](C)O)[C@@H](C)O)[C@@H](C)CC)C(=O)N[C@@H](CCC(=O)O)C(=O)N[C@@H](Cc1ccc(O)cc1)C(=O)N[C@@H](CC(C)C)C(=O)N[C@@H](CC(C)C)C(=O)N[C@@H](CCC(=O)O)C(=O)NCC(=O)NCC(=O)N1CCC[C@H]1C(=O)N[C@@H](CO)C(=O)N[C@@H](CO)C(=O)NCC(=O)N[C@@H](CCC(N)=O)C(=O)N1CCC[C@H]1C(=O)N1CCC[C@H]1C(=O)N1CCC[C@H]1C(=O)N[C@@H](CO)C(N)=O` [Compound 21], the “Rel. A (Relative Activity) on 3T3-L1 adipocyte” value in experiment [1] is 173.69%. The “Human GLP-1R Rel. A (Relative Activity)” value in experiment [2] came to 880.00%. The “Human GCG R Rel. A (Relative Activity)” value in experiment [3] was found to be 228.00%. Moreover, in experiment [4], the “Human GIP R Rel. A (Relative Activity)” value came out at 2262.50%. Moreover, in experiment [5], the “Rel. A (Relative Activity) on human primary liver cells” value came to 782.90%. For the same compound, the “Rel. A (Relative Activity) on RIN-m5F” value in experiment [6] amounted to 540.31%. Further, the “Liver TG” value in experiment [7] (Table 9-2) was determined as 41.4 ± 6.33 mg.
